Values of other authors, collected in patent publication US8852881B2, “Multiwell assay apparatus and method for determining biological activity of compounds” (Vertex Pharmaceuticals, Inc., priority 2004, dated 2014).

Amino acid sequences for entries named in this document (tags omitted). A change or cut given only in a name is not applied to a line headed by its entry. Chains listed by the source or under a name are the forms on record and can include a tag or linker.
UniProt P13569, with tags, fused parts or gaps DEL508-508: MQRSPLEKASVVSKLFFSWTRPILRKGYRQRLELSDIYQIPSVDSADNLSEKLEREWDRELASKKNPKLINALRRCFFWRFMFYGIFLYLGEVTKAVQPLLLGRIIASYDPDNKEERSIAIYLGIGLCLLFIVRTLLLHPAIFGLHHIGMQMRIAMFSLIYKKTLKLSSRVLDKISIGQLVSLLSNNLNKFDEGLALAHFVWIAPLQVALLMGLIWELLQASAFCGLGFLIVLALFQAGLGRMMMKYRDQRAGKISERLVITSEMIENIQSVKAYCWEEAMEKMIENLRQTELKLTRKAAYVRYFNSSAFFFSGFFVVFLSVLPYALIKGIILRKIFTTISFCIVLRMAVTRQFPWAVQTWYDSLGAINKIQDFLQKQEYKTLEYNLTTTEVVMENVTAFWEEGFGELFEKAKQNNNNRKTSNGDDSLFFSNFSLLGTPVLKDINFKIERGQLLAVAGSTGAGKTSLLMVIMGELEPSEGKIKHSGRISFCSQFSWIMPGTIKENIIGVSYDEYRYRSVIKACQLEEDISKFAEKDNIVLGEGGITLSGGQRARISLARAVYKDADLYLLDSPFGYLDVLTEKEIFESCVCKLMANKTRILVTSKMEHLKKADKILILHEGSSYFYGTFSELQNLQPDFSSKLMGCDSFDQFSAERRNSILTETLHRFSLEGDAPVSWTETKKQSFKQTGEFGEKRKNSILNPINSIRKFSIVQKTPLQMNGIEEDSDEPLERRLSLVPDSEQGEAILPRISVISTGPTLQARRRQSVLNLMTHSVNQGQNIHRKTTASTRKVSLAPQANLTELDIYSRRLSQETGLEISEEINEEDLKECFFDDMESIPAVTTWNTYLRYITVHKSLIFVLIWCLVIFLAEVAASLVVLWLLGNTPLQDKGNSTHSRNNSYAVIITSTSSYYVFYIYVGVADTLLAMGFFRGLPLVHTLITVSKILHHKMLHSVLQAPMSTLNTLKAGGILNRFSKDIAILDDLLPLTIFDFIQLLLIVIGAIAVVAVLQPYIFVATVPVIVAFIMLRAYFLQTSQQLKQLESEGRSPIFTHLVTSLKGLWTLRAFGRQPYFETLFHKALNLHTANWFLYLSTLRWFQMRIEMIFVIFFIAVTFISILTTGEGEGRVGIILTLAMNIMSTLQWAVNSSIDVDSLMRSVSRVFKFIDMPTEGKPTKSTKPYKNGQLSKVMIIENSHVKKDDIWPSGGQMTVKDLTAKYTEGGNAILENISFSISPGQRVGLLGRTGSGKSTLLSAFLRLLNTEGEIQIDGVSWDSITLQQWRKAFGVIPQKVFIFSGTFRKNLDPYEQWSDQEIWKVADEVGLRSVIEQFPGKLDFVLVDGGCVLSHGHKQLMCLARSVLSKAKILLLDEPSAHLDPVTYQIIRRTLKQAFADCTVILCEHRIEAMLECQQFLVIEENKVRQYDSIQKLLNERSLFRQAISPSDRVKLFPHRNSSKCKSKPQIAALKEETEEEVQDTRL

Target: T1, ΔF508-CFTR (Homo sapiens, UniProt P13569, DEL508-508)
T1 construct: expressed in transfected cells; host or cells: Fischer Rat Thyroid (FRT) epithelial cell line
Conditions: published value; n=47; read-out: EC-50, published value; cited from earlier work

Q: With `O=c1c(-c2ccc(O)cc2)coc2cc(O)cc(O)c12` [genistein] as the compound, how does the EC50 read?
A: 14.8 ± 3.8 µM
